The numbers were not newly measured in US7578996B2, “Cetylpyridinium chloride as an antimicrobial agent in ophthalmic compositions” (Advanced Medical Optics, Inc., priority 2004, dated 2009), which cites them from elsewhere.

For the series the following is noted: in water.

Regarding “tocopherol polyethylene glycol succinate [TPGS]”, the “critical micelle formation concentration (cmc)” value was 200 ppm.
